The text below walks through data of US20060024786.

Series [1] concerns the target full length human WASP (Myc-WASP-TAP).
Series [2] addresses full length human N-WASP (Myc-N-WASP-TAP).

B1: N_GST_tev_Cdc42 GTP (bacterial GST tagged Cdc42 protein) (protein)
chain: MSPILGYWKIKGLVQPTRLLLEYLEEKYEEHLYERDEGDKWRNKKFELGLEFPNLPYYIDGDVKLTQSMAIIRYIADKHNMLGGCPKERAEISMLEGAVLDIRYGVSRIAYSKDFETLKVDFLSKLPEMLKMFEDRLCHKTYLNGDHVTHPDFMLYDALDVVLYMDPMCLDAFPKLVCFKKRIEAIPQIDKYLKSSKYIAWPLQGWQATFGGGDHPPKSDLVPRPWSNQTSLYKKAGFENLYFQGQTIKCVVVGDVAVGKTCLLISYTTNKFPSEYVPTVFDNYAVTVMIGGEPYTLGLFDTAGQEDYDRLRPLSYPQTDVFLVCFSVVSPSSFENVKEKWVPEITHHCPKTPFLLVGTQIDLRDDPSTIEKLAKNKQKPITPETAEKLARDLKAVKYVECSALTQRGLKNVFDEAILAALEPPETQPKRKCCIF
As to B1, the Barbed ends % of max. (after subtracting baseline) in series [1] was 87%; in series [2], 9%. For the same protein, the Barbed ends, nM (pyrene-actin polymerization assay) in series [2] came out at 1.3 nM.
